Data as given in patent publication US9326978B2, “A3 adenosine receptor allosteric modulators” (The United States of America, Represented by the Secretary, …, priority 2006, dated 2016).

Sequences of proteins named here, by UniProt entry; tags and fusion partners are left off.
UniProt P0DMS8, whole entry: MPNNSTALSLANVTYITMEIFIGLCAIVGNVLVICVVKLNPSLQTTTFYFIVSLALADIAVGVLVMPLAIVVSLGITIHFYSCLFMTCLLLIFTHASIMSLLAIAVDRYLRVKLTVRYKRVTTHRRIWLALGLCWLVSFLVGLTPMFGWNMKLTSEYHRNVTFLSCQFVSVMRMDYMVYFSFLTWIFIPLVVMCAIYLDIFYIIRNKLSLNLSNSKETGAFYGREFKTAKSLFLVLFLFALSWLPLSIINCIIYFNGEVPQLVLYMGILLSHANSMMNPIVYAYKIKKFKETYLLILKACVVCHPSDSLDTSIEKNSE
UniProt P30542, whole entry: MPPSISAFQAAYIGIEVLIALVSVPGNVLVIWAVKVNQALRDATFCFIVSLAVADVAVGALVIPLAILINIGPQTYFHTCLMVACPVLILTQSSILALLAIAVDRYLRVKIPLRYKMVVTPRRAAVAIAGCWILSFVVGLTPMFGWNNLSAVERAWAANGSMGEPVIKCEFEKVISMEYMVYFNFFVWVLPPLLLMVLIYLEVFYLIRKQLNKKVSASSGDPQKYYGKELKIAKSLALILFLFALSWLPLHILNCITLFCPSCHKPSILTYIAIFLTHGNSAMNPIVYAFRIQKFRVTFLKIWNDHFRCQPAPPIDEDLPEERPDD

Legend:
human A3AR = human A3AR (Homo sapiens (Human), UniProt P0DMS8); assay: Competitive binding assay to the human A3AR ([125I]I-AB-MECA); settings: CHO cells, Table 3
human A1AR = human A1AR (Homo sapiens (Human), UniProt P30542); assay: Binding assay to the human A1AR ([3H]R-PIA); settings: CHO cells, Table 3
human A2A AR = human A2A AR (Homo sapiens (Human), UniProt P29274); assay: Binding assay to the human A2A AR ([3H]CGS21680); settings: [3H]CGS 21680, Table 3

- hA3AR % displ. at 10 μM (human A3AR): 67%
- hA1AR % displ. at 10 μM (human A1AR): 15%
- hA2AAR, % displ. at 10 μM (human A2A AR): <10%
Structure (SMILES): Clc1ccc(Nc2nc3ccccc3c3nc(C4CCCC4)[nH]c23)cc1Cl
